Literature values in patent publication US20060136023A1 (priority 2004, published 2006).

Sequences of proteins named here, by UniProt entry; tags and fusion partners are left off.
UniProt P41143, whole entry, looked up: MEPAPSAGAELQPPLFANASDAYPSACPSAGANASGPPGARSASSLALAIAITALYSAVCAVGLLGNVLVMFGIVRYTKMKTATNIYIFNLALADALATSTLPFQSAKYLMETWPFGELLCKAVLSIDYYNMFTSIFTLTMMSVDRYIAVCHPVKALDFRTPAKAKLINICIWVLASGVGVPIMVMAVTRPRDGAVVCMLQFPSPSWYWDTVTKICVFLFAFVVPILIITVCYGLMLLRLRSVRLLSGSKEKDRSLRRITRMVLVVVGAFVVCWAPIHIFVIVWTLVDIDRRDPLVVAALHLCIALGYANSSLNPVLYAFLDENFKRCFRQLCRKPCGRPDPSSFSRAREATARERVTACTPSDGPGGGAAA

Key:
delta receptor = delta receptor (Homo sapiens, UniProt P41143); details: competitive antagonists at the delta receptor
[1] = when used in animals

Compound | block of the respiratory sedation caused by fentanyl (delta receptor) | properties at the opiate receptor (opiate receptor) | respiratory sedation [1]
Oc1ccc2c3c1O[C@H]1c4[nH]c5ccccc5c4C[C@@]4(O)[C@@H](C2)N(CC2CC2)CC[C@]314 | can block the respiratory sedation |  | 
1,3 dimethyl-4-propyl-4-hydroxyphenyl piperdine (cis 3-methyl, 4-propyl) |  | antagonist properties | ceiling effect
